Literature values, collected in patent US11478526B2, “Methods of reducing neuroinflammation or toxicity induced by amyloid beta (abeta) using glucocorticoid induced leucine zipper (GILZ) analog peptides” (INDIANA UNIVERSITY RESEARCH AND TECHNOLOGY CORPORATION, priority 2016, dated 2022).

Sequences of proteins named here, by UniProt entry; tags and fusion partners are left off.
UniProt Q04206, whole entry: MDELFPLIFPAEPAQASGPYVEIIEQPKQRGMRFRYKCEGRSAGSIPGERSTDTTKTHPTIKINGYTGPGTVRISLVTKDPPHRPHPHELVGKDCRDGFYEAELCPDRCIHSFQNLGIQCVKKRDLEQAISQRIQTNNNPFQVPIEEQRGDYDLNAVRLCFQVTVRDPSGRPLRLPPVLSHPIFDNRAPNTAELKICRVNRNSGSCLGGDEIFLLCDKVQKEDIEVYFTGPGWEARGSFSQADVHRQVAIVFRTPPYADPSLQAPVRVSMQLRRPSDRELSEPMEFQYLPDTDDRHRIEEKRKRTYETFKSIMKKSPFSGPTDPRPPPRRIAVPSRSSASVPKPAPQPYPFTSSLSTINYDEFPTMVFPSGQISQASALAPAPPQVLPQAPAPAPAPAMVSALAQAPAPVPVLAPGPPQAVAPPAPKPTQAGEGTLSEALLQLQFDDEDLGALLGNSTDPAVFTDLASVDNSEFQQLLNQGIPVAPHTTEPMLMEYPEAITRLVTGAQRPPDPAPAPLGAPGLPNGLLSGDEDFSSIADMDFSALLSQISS

Biological target: T1, Recombinant human p65 protein (r-p65) (Homo sapiens, UniProt Q04206)
T1 construct: purchased Ori-Gene Technologies Inc., Rockville, Md; TP320780
Conditions: previously shown; read-out: strength of interaction with r-p65; cited from earlier work

B1: rGILZ: purified recombinant human GILZ protein (r-GILZ) with GST tag (protein)
chain: MNTEMYQTPMEVAVYQLHNFSISFFSSLLGGDVVSVKLDNSASGASVVAIDNKIEQAMDLVKNHLMYAVREEVEILKEQIRELVEKNSQLERENTLLKTLASPEQLEKFQSCLSPEEPAPESPQVPEAPGGSAV
modifications: left off: a dimerising Fc or GST
notes: purified recombinant human GILZ protein (r-GILZ) with GST tag
For B1, the Kd is given as 591 nM.
